The source of these data is article PMC9503446, “Effects of Medicinal Leech-Related Cationic Antimicrobial Peptides on Human Blood Cells and Plasma” (Molecules, 2022).

For this data set, the system named is erythrocytes. Put plainly: Hemolysis assay, erythrocytes in PBS. The following applies: 1 μM concentration. It counts as cell-based, human. The method, then:
Erythrocytes were incubated (0.5 h, 37 °C) with different CAMP concentrations ranging from 6.25 μM to 100 μM. Incubation conditions chosen were similar to those used in other studies. Following incubation, the samples were centrifuged, and the supernatant analyzed spectrophotometrically for hemoglobin at 414 nm and 540 nm. Absorption at 414 nm provides higher sensitivity. The results were the same no matter which wavelength was used to monitor for hemoglobin.
The hemolytic activity of CAMPs was determined using a hemolysis assay measuring hemoglobin released from damaged cells. A working erythrocyte suspension (in PBS) was prepared so that its ten-fold dilution gave an optical density of 0.4 at 800 nm. This working suspension corresponded to a cell density of about 30 × 10^6 cells/mL. Aliquots of 125 μL of CAMP solutions of different concentrations were added to Eppendorf tubes. […] The supernatant (200 μL) was transferred to the wells of a microplate, and the absorbance of hemoglobin was measured by a Thermo Electron Multiskan Ascent microplate reader (Thermo Fisher Scientific Inc., Waltham, MA, USA), with a test wavelength of 414 nm as well as 540 nm and a background wavelength of 690 nm. The hemolysis percentage was calculated using the following equation: Hemolysis (%) = {(sample absorbance − negative control)/(positive control − negative control)} × 100.

The molecule `CC[C@H](C)[C@H](NC(=O)CN)C(=O)NCC(=O)N[C@@H](C)C(=O)N[C@H](C(=O)N[C@@H](CC(C)C)C(=O)N[C@@H](CCCCN)C(=O)N[C@H](C(=O)N[C@@H](CC(C)C)C(=O)N[C@H](C(=O)N[C@H](C(=O)NCC(=O)N[C@@H](CC(C)C)C(=O)N1CCC[C@H]1C(=O)N[C@@H](C)C(=O)N[C@@H](CC(C)C)C(=O)N[C@H](C(=O)N[C@@H](CO)C(=O)N[C@@H](Cc1c[nH]c2ccccc12)C(=O)N[C@H](C(=O)N[C@@H](CCCCN)C(=O)N[C@@H](CCCNC(=N)N)C(=O)N[C@@H](CCCCN)C(=O)N[C@@H](CCCNC(=N)N)C(=O)N[C@@H](CCC(N)=O)C(=O)N[C@@H](CCC(N)=O)C(N)=O)[C@@H](C)CC)[C@@H](C)CC)[C@@H](C)O)[C@@H](C)O)C(C)C)C(C)C` [melittin, reference compound] returned a Hemolysis of 100%.
